Test results from ChEMBL document CHEMBL4414601 (J Med Chem, 2019).
≈ marks a conversion by molar mass, not a printed value.

Sequences of proteins named here, by UniProt entry; tags and fusion partners are left off. A change or cut given only in a name is not applied to a line headed by its entry.
UniProt Q12809: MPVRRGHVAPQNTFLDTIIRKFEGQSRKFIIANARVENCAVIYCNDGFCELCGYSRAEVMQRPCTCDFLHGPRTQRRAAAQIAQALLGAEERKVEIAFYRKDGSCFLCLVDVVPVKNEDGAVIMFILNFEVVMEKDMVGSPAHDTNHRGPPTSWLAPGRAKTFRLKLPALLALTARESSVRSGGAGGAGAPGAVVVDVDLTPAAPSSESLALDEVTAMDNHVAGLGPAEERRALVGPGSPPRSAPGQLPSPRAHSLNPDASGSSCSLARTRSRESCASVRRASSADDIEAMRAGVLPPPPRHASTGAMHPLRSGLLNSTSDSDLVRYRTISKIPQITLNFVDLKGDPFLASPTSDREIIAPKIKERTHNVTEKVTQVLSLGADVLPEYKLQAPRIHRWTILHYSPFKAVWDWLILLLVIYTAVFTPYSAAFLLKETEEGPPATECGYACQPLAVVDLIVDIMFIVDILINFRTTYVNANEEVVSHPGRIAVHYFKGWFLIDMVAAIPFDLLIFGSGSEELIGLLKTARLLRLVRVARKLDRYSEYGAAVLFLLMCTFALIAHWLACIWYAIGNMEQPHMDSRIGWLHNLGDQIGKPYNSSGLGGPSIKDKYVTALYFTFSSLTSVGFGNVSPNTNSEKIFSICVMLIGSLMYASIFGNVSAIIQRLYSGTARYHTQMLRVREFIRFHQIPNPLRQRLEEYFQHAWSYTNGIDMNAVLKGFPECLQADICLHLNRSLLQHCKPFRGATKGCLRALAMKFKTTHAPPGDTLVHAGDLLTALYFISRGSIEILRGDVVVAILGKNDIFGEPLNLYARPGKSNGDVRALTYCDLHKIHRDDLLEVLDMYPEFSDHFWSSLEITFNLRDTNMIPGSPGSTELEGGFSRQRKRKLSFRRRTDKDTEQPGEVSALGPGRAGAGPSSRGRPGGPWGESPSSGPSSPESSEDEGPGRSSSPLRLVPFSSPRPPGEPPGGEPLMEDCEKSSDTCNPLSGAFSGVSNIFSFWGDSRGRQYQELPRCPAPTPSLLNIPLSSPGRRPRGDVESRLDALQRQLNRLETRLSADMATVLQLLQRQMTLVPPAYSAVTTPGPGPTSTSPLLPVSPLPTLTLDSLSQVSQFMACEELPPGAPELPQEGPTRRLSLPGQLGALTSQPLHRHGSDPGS

What was measured:
[1] = target: Voltage-gated inwardly rectifying potassium channel KCNH2 (Homo sapiens, UniProt Q12809)
[2] = Selectivity ratio of EC50 for cytotoxicity against mouse L929 cells to EC50 for Antiplasmodial activity against Plasmodium falciparum 3D7A erythrocytic stage; type: toxicity, cell-based; settings: read-out: Ratio EC50
[3] = buffer

SMILES | IC50 [1] | selectivity ratio [2] | solubility [3]
Cc1cc(Nc2nccc(-c3sc(C4CCNCC4)nc3C3CC3)n2)ccn1 | 4.2 µM | 105 | 
Fc1ccc(-c2nc(N3CCCC3)sc2-c2ccnc(Nc3ccc(N4CCNCC4)cc3)n2)cc1 | 5.6 µM |  | 
CN1CCC(C(=O)Nc2nc(-c3ccc(F)cc3)c(-c3ccnc(Nc4ccc(N5CCNCC5)cc4)n3)s2)CC1 | 50.1 µM |  | 
CCCS(=O)(=O)Nc1nc(-c2ccc(F)cc2)c(-c2ccnc(Nc3ccc(N4CCNCC4)cc3)n2)s1 |  |  | < 1 µM
COc1cc(Nc2nccc(-c3sc(C4CCNCC4)nc3-c3ccc(F)cc3)n2)cc(C)n1 |  |  | 490 µM (≈ 234 µg/mL)
Oc1cc(Nc2nccc(-c3sc(C4CCNCC4)nc3-c3ccc(F)cc3)n2)ccn1 |  |  | 390 µM (≈ 175 µg/mL)
Fc1ccc(-c2nc(N3CCOCC3)sc2-c2ccnc(Nc3ccc(N4CCNCC4)cc3)n2)cc1 | 5.4 µM |  | 
